{"sequences": {"note": "Protein sequences, listed by entry. Tags and fused reporters are not part of them.", "UniProt Q96P20, whole entry": "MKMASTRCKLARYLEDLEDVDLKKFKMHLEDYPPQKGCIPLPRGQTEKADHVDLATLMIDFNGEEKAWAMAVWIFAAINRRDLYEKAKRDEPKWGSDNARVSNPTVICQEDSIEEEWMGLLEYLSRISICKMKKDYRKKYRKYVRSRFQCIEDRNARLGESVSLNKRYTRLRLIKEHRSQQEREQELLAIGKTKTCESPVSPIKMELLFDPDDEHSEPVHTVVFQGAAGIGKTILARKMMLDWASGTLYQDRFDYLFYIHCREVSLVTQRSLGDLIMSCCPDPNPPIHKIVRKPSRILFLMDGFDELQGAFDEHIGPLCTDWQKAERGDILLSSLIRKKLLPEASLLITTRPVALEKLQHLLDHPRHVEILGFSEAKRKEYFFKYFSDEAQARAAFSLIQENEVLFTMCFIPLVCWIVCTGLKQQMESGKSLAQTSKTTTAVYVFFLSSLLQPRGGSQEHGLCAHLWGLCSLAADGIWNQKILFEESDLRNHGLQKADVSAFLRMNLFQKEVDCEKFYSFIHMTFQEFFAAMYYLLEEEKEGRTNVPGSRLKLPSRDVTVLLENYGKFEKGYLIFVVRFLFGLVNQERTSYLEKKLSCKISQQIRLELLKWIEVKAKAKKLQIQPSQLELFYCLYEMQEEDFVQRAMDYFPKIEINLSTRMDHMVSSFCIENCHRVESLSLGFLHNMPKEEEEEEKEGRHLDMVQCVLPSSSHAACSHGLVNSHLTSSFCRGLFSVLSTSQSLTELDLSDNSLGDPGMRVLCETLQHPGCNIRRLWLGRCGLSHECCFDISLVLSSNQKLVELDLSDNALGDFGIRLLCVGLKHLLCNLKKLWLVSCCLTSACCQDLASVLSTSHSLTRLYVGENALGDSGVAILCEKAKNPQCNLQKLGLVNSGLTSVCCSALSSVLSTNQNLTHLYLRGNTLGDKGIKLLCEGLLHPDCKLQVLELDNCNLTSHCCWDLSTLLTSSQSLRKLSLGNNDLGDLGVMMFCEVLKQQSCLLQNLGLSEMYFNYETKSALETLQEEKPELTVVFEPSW"}, "source": "patent US20250114361A1", "about": "“PYRAZOLOPYRIMIDINE COMPOUND AND PHARMACEUTICAL USE THEREOF” (Japan Tobacco Inc., priority 2022, published 2025)", "biological_target": "NLRP3 inflammasome (Homo sapiens (Human), UniProt Q96P20)", "assay": "NLRP3 inflammasome inhibitory activity: inhibition of IL-1β production in THP1-Null cells (PMA, LPS, Nigericin)", "details": "Nigericin 7.5 μmol/L", "procedure": "The NLRP3 inflammasome inhibitory activity of test compounds were evaluated on the basis of the inhibitory activity of the IL-1β production in THP1-Null cells (Product Number: thp-null, InvivoGen). Cells were maintained for culture in RPMI-1640 media containing 10% (v/v) fetal bovine serum, 25 mmol/L HEPES, 100 U/mL penicillin, 100 μg/mL streptomycin, 100 μg/mL normocin, and 200 μg/mL hygromycin B (set at 37° C., 5% CO2/95% air).\nCells were suspended with media for assay containing 0.5 μmol/L PMA (RPMI-1640 media containing 10% (v/v) fetal bovine serum, 100 U/mL penicillin, and 100 μg/mL streptomycin), and the suspended cells were seeded on Corning (registered trademark) 384-well Flat Clear Bottom Black Polystyrene TC-treated Microplates (25,000 cells/25 μL/well), followed by incubation (set at 37° C., 5% CO2/95% air) overnight. […]\nThe amount of IL-1β in the culture supernatant was quantitated with AlphaLISA (registered trademark) Human IL-1β Detection Kit (Product Number: AL220C, Perkin Elmer). Fluorescence intensity was measured with a microplate reader EnSpier (Model number: 2300-00J, Perkin Elmer) or EnSight (Model number: HH34000000, Perkin Elmer) according to procedure manuals attached thereto. Inhibition rates of the test compound-setting wells were calculated on the basis of 100% for the blank-setting wells and 0% for the control-setting wells. […]", "data": [{"smiles": "Cc1cc(C(C)(F)F)cc(C)c1-n1cc2c(=O)[nH]c(-c3ncn(C)n3)nc2n1", "values": [{"measurement": "IC50", "value": 490, "unit": "nM"}]}]}
